pKi: −log10 of the molar value.
Molecular target: opioidergic receptors δ (Mus musculus, UniProt P32300)
Experiment: Radioreceptorial binding, receptors δ ([3H]-DPDPE displacement, brain membranes)
Parameters: species or system mice
Conditions: read-out: Ki δ, 1 nM [3H]-DPDPE, 25° C.

Compound	pKi
CCC(=O)N1CCC2CCC(C1)N2CC=C(C)c1ccc(Cl)c2ccccc12 (centres unmarked)	5.70
CCC(=O)N1C2CCC1CN(CC=C(C)c1ccc(Cl)c3ccccc13)CC2 (centres unmarked)	< 5.30
